Molecular target: human FXR (NR1H4) (Homo sapiens, UniProt Q96RI1)
Test: Human FXR (NR1H4) Assay: Gal4 promoter driven luciferase reporter transactivation in CHO cells (Indigo Bioscience kit IB00601)
Format: cell-based
Settings: for Efficacy (%): efficacy normalized to CDCA set as 100%; for EC50: potency range, Human FXR (NR1H4) reporter assay in CHO cells

Amino acid sequences for entries named in this document (tags omitted).
UniProt Q96RI1, whole entry: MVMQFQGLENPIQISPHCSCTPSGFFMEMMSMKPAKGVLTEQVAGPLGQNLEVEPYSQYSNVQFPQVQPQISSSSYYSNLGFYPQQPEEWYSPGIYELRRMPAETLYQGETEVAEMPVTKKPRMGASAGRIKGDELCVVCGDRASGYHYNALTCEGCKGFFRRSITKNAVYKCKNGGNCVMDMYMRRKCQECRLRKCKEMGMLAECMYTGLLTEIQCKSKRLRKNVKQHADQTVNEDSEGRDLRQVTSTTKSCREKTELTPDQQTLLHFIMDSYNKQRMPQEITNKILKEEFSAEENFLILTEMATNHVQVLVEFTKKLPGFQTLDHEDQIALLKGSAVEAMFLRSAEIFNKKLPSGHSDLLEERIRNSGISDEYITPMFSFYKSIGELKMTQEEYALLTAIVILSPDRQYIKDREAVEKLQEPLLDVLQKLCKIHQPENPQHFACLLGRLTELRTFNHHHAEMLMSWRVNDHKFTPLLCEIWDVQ

Structure (SMILES)	Efficacy (%)	EC50
COC(=O)c1ccc(NC(=O)N2C3CCC2CC(OCc2c(-c4c(Cl)cccc4Cl)noc2C2CC2)C3)c(F)c1 (stereo not drawn)	165%	10 to 100 nM
O=C(O)c1ccc(NC(=O)N2C3CCC2CC(OCc2c(-c4c(Cl)cccc4Cl)noc2C2CC2)C3)cc1-c1cccnc1 (stereo not drawn)	36%	10 to 100 nM
COC(=O)c1ccc(NC(=O)N2C3CCC2CC(OCc2c(-c4c(Cl)cccc4Cl)noc2C2CC2)C3)cc1-c1cccnc1 (stereo not drawn)	87%	< 10 nM

— patent US10597391B2, “Urea-containing isoxazole derivatives as FXR agonists and methods of use thereof” (Enanta Pharmaceuticals, Inc., priority 2016, dated 2020)
